ChEMBL document CHEMBL1687805, “Colistin resistance in Acinetobacter baumannii is mediated by complete loss of lipopolysaccharide production” (2010)

Tested on: Acinetobacter baumannii
Experiment: Antibacterial activity against Acinetobacter baumannii ATCC 19606 by broth microdilution method
Format: functional
How it was run: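 Broth microdilution MIC in cation-adjusted Mueller-Hinton broth following the CLSI protocol, read in μg/ml. Strains were kept on Mueller-Hinton agar and cultured at 37°C. 19606R was selected directly on 10 μg/ml colistin and maintained with it. The pWH1266 or pAL840 transformants of 19606R were introduced by electroporation and selected on 100 μg/ml ampicillin.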

COLISTIN SULFATE
MIC: 1 µg/mL
